The record followed here is patent publication US12465594B2 (Brown University, priority 2018, dated 2025).

The chains behind the UniProt entries cited, without tags or fusion partners. Where a name states a change or a piece, a line headed by the entry shows the natural chain unless it says otherwise. A line that says so, or that is headed by a name, gives the form on record, which may keep a tag or linker.
HEK293 cells expressing FLAG-CRFBP(10 kD)-HA-CRF2α (Homo sapiens, UniProt P24387+Q13324), UniProt P24387+Q13324, fused: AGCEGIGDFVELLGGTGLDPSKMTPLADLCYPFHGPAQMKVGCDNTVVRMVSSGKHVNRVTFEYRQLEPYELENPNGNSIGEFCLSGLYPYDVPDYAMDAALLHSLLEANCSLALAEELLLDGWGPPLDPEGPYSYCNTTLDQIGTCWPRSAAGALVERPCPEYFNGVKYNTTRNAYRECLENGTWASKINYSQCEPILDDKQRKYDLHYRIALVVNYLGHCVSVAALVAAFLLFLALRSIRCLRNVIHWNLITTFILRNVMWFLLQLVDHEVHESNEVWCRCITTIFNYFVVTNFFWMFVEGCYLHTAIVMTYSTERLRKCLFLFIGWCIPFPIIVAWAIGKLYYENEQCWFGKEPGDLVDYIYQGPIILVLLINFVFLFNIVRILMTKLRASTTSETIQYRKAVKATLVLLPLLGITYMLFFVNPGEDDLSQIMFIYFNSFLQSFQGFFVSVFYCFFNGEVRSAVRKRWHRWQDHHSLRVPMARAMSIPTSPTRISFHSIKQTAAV
UniProt P24387: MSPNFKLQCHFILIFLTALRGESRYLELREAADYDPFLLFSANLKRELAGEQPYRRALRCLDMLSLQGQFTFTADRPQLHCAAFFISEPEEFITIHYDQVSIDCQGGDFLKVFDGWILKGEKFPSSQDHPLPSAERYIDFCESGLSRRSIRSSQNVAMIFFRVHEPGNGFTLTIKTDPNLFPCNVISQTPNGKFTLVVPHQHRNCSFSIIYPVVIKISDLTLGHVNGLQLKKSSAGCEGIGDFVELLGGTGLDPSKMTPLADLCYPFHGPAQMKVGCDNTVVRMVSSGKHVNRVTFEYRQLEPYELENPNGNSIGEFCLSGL
UniProt Q13324: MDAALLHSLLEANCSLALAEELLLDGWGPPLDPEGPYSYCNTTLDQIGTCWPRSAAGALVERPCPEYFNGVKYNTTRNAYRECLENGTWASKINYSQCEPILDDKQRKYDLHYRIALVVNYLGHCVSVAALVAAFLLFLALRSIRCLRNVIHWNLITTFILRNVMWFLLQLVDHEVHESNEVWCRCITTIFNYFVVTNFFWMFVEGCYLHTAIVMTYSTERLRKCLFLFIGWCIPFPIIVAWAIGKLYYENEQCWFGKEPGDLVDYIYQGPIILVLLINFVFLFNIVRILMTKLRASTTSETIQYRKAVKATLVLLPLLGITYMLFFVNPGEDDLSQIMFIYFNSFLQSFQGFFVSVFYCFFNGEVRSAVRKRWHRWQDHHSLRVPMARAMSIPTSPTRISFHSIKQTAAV

The assay addresses HEK293 cells expressing FLAG-CRFBP(10 kD)-HA-CRF2α (Homo sapiens, UniProt P24387+Q13324). The settings on record: read-out: IC50, inhibition of CRF-induced intracellular calcium release; CRF 1 μM, 384-well (FIG. 2B legend). (Calcium assays in cells follow changes in intracellular calcium, usually with a dye or a luminescent sensor.)

As usually defined, the IC50 is the concentration at which inhibition is half-maximal. Turning to antisauvagine 30 [AS-30], the IC50 came to 0.017 ± 0.001 µM.
